# Data as given in PubChem BioAssay AID652 (University of Pittsburgh Molecular Library Screening Center, 2007).
# The list shows a part of the results, in another mix than the full data.
# Molecular target: Gag-Pol polyprotein (Human immunodeficiency virus type 1 group M subtype B (isolate HXB2)) (UniProt P04585)
# Test: concentration-response of HIV-1 RNase H blockers – biochemical, probe assessment, dose response (AID 652)
# Conditions: HIV-1 RT RNase H enzymatic assay, at 50 µM, stronger effect = higher value
smiles,measurement,value
COc1cc(/C=C/C(=O)CC(=O)/C=C/c2ccc(O)c(OC)c2)ccc1O,inhibition,87%
